Experimental findings from PubChem BioAssay AID492999 (Johns Hopkins Ion Channel Center, 2010) are described below.

This is a selection; strong and weak results do not stand in their true shares. Calls of active or inactive are those of the source.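 Rule for the calls: active = duplicate-averaged calcium response above the buffer-only control mean plus 5 SD of those controls; inactive = the rest.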

This experiment in a line: enhanced carbachol calcium response, M3R/RGS4 cells, RGS4 inhibitor project, cell-based, validation screen, HEK293 M3R/RGS4, calcium flux (AID 492999).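 Note: integrated fluorescence ratio F max minus min over baseline F0; higher response in RGS4-induced cells means RGS4 inhibition.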 To be noted: HEK293 M3R/RGS4, carbachol calcium Fluo-4 fluorescence; at 10 µM; active compounds read high; 0 = buffer wells, 100 = carbachol control; carbachol added at its EC20. For orientation: Calcium assays in cells follow changes in intracellular calcium, usually with a dye or a luminescent sensor.
In the case of `CCc1nc2c(n1)c1c(non1O)c1c2no[n+]1[O-]`, the calcium response was active: 18%.
